# Assay results: BindingDB's records for doi:10.1021/jm00080a030 (Abbott Laboratories, 1992)
# Target: C5a anaphylatoxin chemotactic receptor 1 (Homo sapiens) (UniProt P21730)
# Assay: Potency as the maximal lysosomal myeloperoxidase (MPO) release in PMNL assay
row,SMILES,EC50 [µM]
1,CC[C@H](C)[C@H](N)C(=O)N[C@@H](CO)C(=O)N[C@@H](Cc1ccccc1)C(=O)N[C@@H](CCCCN)C(=O)N[C@@H](CC(=O)O)C(=O)N[C@@H](CCSC)C(=O)N[C@@H](CCC(N)=O)C(=O)N[C@@H](CC(C)C)C(=O)NCC(=O)N[C@@H](CCCNC(=N)N)C(=O)O,60
2,CC[C@H](C)[C@H](NC(=O)[C@H](CC(N)=O)NC(=O)[C@H](C)N)C(=O)N[C@@H](CO)C(=O)N[C@@H](Cc1ccccc1)C(=O)N[C@@H](CCCCN)C(=O)N[C@@H](CC(=O)O)C(=O)N[C@@H](CCSC)C(=O)N[C@@H](CCC(N)=O)C(=O)N[C@@H](CC(C)C)C(=O)NCC(=O)N[C@@H](CCCNC(=N)N)C(=O)O,330
